# PubChem BioAssay AID738 (SRMLSC, 2007)
# The list shows a part of the results, in another mix than the full data. Active and inactive are the calls of the source. Cut-off read from the data, not from the text of the source: active = inhibition above about 30%; inactive = the rest.
# Experiment: yeast control strain growth suppression – counter-screen for post-Golgi transport modulator project, primary screen (AID 738)
# Settings: efflux-deficient yeast background strain, growth absorbance A615, 16 h; at 10 µM; stronger effect = higher value
row,SMILES,inhibition
1,COc1ccc(NC2CCN(CCc3ccccc3)CC2)c(OC)c1,inactive: 1.18%
2,O=C(NCC1(N2CCOCC2)CCCCC1)c1cc2ccccc2o1,inactive: -3.16%
3,O=C(OC1CN2CCC1CC2)C1c2ccccc2Oc2ccccc21 (centres undefined),inactive: 6.18%
4,N#CC1(Nc2ccccc2)CCN(CCc2ccccc2)CC1,inactive: 6.32%
5,O=C(NCC1(N2CCOCC2)CCCCC1)c1cc(=O)[nH]c2ccccc12,inactive: 3.46%
6,c1ccc(CN2CCC(Nc3ccccc3)CC2)cc1,inactive: 0.44%
7,N/C(=N\O)c1c(N)no[n+]1[O-],inactive: 7.92%
8,CCOc1ncccc1C(=O)NCC1(N2CCOCC2)CCCCC1,inactive: 5.78%
9,CCC(CO)(C(=O)OC1CN2CCC1CC2)c1ccccc1 (centres undefined),inactive: 1.99%
